pEC50: −log10 of the molar value.
Columns and labels:
Assay type in all cases: cell-based
[1] = target: T1, human glucagon-like peptide 2 receptor (GLP2R) (Homo sapiens, UniProt O95838); test: CRE-luciferase reporter assay, HEK293/Myc-hGLP2R/Cre-Luc (Example 9); conditions: read-out: HEK293/Myc-hGLP2R/Cre-Luc EC50, Table 9
T1 construct: full-length human GLP1R, cynomolgus GLP1R, human glucagon receptor (GCGR), human glucagon-like peptide 2 receptor (GLP2R); expressed in transfected cells; host or cells: HEK293/CRE-Luc
T1 sequence (O95838 1-553): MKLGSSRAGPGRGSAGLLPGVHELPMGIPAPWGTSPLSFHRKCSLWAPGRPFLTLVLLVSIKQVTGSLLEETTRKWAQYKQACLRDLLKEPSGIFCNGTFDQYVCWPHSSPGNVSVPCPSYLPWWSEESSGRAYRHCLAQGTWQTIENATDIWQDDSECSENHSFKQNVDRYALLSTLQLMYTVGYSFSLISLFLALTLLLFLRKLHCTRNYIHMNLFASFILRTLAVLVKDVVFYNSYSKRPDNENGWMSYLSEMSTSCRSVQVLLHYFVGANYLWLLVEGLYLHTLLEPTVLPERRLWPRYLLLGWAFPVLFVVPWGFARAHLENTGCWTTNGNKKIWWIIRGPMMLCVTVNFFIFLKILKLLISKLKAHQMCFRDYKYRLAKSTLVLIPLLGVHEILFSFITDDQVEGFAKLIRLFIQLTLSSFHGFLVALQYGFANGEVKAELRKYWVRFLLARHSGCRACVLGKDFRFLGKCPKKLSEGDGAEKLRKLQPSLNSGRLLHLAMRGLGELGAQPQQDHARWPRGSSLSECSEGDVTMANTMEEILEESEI

Amino acid sequences for entries named in this document (tags omitted). Residues count along the entry.
UniProt F8V479, 24-463: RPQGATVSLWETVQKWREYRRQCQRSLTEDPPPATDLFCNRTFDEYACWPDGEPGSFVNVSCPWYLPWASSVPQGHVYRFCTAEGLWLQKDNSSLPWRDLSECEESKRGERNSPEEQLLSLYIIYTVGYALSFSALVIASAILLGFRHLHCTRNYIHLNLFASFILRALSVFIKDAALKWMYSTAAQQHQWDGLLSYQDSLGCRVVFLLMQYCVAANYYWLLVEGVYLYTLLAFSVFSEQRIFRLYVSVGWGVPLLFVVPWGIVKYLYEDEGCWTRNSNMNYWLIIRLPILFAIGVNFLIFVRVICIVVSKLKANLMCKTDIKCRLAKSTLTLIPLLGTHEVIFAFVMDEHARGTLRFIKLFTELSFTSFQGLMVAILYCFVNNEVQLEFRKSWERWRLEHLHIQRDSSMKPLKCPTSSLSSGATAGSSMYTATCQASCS
UniProt P47871, 26-477: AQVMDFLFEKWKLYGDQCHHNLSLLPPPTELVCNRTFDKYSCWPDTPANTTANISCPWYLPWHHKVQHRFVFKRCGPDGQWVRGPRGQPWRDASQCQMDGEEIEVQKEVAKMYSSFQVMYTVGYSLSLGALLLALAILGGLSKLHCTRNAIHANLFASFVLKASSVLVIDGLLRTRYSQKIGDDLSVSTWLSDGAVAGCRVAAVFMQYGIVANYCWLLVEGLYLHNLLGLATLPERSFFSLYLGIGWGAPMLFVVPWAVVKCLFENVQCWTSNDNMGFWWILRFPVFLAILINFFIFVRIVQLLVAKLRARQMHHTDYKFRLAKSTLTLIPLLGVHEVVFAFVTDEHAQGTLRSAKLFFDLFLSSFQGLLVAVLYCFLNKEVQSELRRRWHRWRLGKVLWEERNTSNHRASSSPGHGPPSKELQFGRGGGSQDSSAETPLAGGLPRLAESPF
UniProt P43220, 24-463: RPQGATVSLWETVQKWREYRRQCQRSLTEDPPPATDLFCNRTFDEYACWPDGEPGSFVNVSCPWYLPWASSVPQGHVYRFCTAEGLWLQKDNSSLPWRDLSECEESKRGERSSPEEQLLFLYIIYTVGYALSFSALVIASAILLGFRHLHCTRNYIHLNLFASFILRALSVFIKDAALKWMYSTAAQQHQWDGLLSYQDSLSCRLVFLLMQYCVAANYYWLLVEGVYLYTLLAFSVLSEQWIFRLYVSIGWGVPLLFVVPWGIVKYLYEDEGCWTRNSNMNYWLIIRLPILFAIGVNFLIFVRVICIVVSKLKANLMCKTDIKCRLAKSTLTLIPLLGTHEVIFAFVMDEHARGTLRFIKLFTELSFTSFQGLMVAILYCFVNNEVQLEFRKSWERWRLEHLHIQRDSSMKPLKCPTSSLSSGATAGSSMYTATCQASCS

cynomolgus GLP1R = target: T2, cynomolgus GLP1R (Macaca fascicularis, UniProt F8V479); test: Luciferase reporter assay, HEK293/CRE-Luc/mfGLP1R (Example 17); conditions: read-out: HEK293/CRE-Luc/mfGLP1R EC50; Table 28; CRE-dependent luciferase reporter activity
T2 construct: engineered to express full-length human GLP1R, cynomolgus GLP1R; expressed in transfected cells; host or cells: HEK293/CRE-Luc

[2] = target: T1, human glucagon-like peptide 2 receptor (GLP2R); test: Luciferase reporter assay, HEK293/CRE-Luc/hGLP2R (Example 17)
[3] = target: T3, human glucagon receptor (GCGR) (Homo sapiens, UniProt P47871); test: Luciferase reporter assay, HEK293/CRE-Luc/hGCGR (Example 17); conditions: read-out: HEK293/CRE-Luc/hGCGR EC50; Table 28; CRE-dependent luciferase reporter activity
T3 construct: full-length human GLP1R, cynomolgus GLP1R, human glucagon receptor (GCGR); expressed in transfected cells; host or cells: HEK293/CRE-Luc

[4] = target: T4, human gastric inhibitory polypeptide receptor (GIPR) (Homo sapiens, UniProt P48546); test: Luciferase reporter assay, HEK293/CRE-Luc/hGIPR (Example 17); set-up: expressed in transfected cells; host or cells: HEK293/CRE-Luc; conditions: read-out: HEK293/CRE-Luc/hGlPR EC50; Table 28; CRE-dependent luciferase reporter activity
T4 sequence (P48546 22-466): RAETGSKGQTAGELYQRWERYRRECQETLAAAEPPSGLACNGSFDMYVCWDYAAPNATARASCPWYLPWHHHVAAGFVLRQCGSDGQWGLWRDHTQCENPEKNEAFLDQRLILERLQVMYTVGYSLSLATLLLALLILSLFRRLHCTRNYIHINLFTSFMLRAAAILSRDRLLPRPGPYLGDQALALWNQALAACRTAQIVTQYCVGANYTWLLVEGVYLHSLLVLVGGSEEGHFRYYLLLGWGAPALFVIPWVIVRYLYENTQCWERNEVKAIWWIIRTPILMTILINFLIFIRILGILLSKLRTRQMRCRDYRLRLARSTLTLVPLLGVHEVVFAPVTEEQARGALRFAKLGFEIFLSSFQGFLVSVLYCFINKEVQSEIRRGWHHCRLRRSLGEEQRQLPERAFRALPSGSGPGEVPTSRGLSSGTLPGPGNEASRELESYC

human GLP1R = human GLP1R (Homo sapiens, UniProt P43220); test: Luciferase reporter assay, HEK293/CRE-Luc/hGLP1R (Example 17); set-up: engineered to express full-length human GLP1R, cynomolgus GLP1R; expressed in transfected cells; host or cells: HEK293/CRE-Luc; conditions: Table 28; CRE-dependent luciferase reporter activity
[5] = read-out: HEK293/CRE-Luc/hGLP2R EC50, Table 28, CRE-dependent luciferase reporter activity

## GLP2
[1]
  pEC50: 10.91
Cynomolgus GLP1R
  pEC50: < 6.70
[2]; read-out: EC50 / activity, HEK293/CRE-Luc/hGLP2R, text b1834 (Table 28)
  pEC50: 8.96
[2]; [5]
  pEC50: 8.96
[3]
  pEC50: < 6.70
[4]
  pEC50: < 6.70
Human GLP1R
  pEC50: < 6.70

## GCG [reference compound]
[2]; [5]
  pEC50: < 6.70
[4]
  pEC50: < 6.70

## GIP
Cynomolgus GLP1R
  pEC50: < 6.70
[2]; [5]
  pEC50: < 6.70
[3]
  pEC50: < 6.70

Source: US20230330254A1 (Regeneron Pharmaceuticals, Inc., priority 2022, published 2023)
